What is called boiling point is the temperature of boiling at a given pressure. As a reminder, the melting point is the temperature, or range, at which the solid turns liquid.

For the first series the following is noted: experimental values compiled from the literature.
For `OCCSCCO`, the boiling point amounted to 282 °C, the log10 vapour pressure (mmHg) was -2.49, the melting point is -10.2 °C and the ready biodegradability result is “not readily biodegradable”. Turning to `CC(C)OP(=S)(OC(C)C)SCCNS(=O)(=O)c1ccccc1`, the log10 Koc (L/kg) is 3 and the log10 vapour pressure (mmHg) was -6.1.

In turn, `CCC(CO[N+](=O)[O-])(CO[N+](=O)[O-])CO[N+](=O)[O-]` returned a melting point of 51.5 °C.

For the molecule `CC(C)OP(=O)(F)OC(C)C`, the boiling point is 183 °C, the log10 vapour pressure (mmHg) was -0.237 and the melting point is -82 °C. Molecule `CCC(C)OC(=O)Cl` (stereo unspecified) displayed a log10 vapour pressure (mmHg) of 1.03. `O=[N+]([O-])OCC(O)CO[N+](=O)[O-]` had a melting point of 26 °C.

Consider `O=[N+]([O-])OCCO[N+](=O)[O-]`, for which the boiling point was found to be 198 °C, the log10 vapour pressure (mmHg) is -1.14 and the melting point is -22.3 °C. In the case of `O=[N+]([O-])c1cc([N+](=O)[O-])c2c([N+](=O)[O-])cc([N+](=O)[O-])cc2c1`, the melting point came to 207 °C. Turning to `O=[N+]([O-])c1cc([N+](=O)[O-])c(O)c([N+](=O)[O-])c1`, the log10 vapour pressure (mmHg) is -6.12, the melting point was found to be 122 °C and the ready biodegradability entry is given as “not readily biodegradable”. In turn, `C[As](=O)([O-])O.[Na+]` had a log10 vapour pressure (mmHg) of -7.12. For `O=[N+]([O-])OC[C@@H](O[N+](=O)[O-])[C@@H](O[N+](=O)[O-])[C@H](O[N+](=O)[O-])[C@@H](CO[N+](=O)[O-])O[N+](=O)[O-]`, the melting point was found to be 107 °C. `CCO[N+](=O)[O-]` yielded a boiling point of 87.2 °C, a log10 vapour pressure (mmHg) of 1.81 and a melting point of -94.6 °C.

`CC(C)([N+](=O)[O-])[N+](=O)[O-]` displayed a boiling point of 185 °C and a melting point of 54 °C. On to `O=C(Cl)OCCOC(=O)Cl`, for which the log10 vapour pressure (mmHg) was -1.67. For `C[As](=O)([O][Na])[O][Na]`, the log10 Koc (L/kg) was found to be 2.78. In the case of `C[As](=O)(O)O`, the log10 Koc (L/kg) amounted to 3.85.

`CCCO[N+](=O)[O-]`: the boiling point amounted to 110 °C, the log10 Henry constant (atm·m³/mol) was -2.9, the log10 vapour pressure (mmHg) stood at 1.37 and the melting point is -100 °C. For the molecule `Nc1c([N+](=O)[O-])c(N)c([N+](=O)[O-])c(N)c1[N+](=O)[O-]`, the melting point amounted to 350 °C. Take `O=[N+]([O-])c1ccc([N+](=O)[O-])cc1`: the boiling point amounted to 297 °C, the melting point was determined as 174 °C and the ready biodegradability result is “not readily biodegradable”. For `COC(=O)C(O)(c1ccccc1)c1ccccc1`, the melting point is 75.8 °C.

The molecule `CCP(Cl)Cl` returned a boiling point of 112 °C. In turn, `CP(=O)(Cl)Cl` had a boiling point of 163 °C and a melting point of 36 °C. On to `Cc1c([N+](=O)[O-])cc([N+](=O)[O-])c(C)c1[N+](=O)[O-]`, for which the melting point is 184 °C. Still for that read-out and setting: the figure for `COc1c([N+](=O)[O-])cc([N+](=O)[O-])cc1[N+](=O)[O-]` is 69 °C.

In turn, `O=[N+]([O-])c1cc([N+](=O)[O-])c2onnc2c1` came in with a melting point of 158 °C. Turning to `Cl.Nc1cc([As](Cl)Cl)ccc1O`, the melting point was found to be 200 °C.

The series is the same for the next values; noted with them: fish.
The molecule `O=[N+]([O-])c1cc([N+](=O)[O-])c(O)c([N+](=O)[O-])c1` gave a log10 BCF of 0.34.

These data come from the OPERA property sets (Mansouri et al. 2018).
